# US12290596B2, “Compositions and methods for the treatment of opioid overdose” (priority 2021, dated 2025)
# Experiment: clinical
# Details: human, plasma, im, 1 mg, Vz/F, Treatment B: IM 1.0 mg nalmefene hydrochloride, Median, n=68
smiles,measurement,value
"C=C1CC[C@@]2(O)[C@H]3Cc4ccc(O)c5c4[C@@]2(CCN3CC2CC2)[C@H]1O5 [Nalmefene, 17-cyclopropylmethyl-4,5α-epoxy-6-methylenemorphinan-3,14-diol]",Vd/F,865 L
